{"source": "patent US10828372B2", "about": "“Compositions and methods for the inhibition of fibrosis” (WISCONSIN ALUMNI RESEARCH FOUNDATION, priority 2017, dated 2020)", "origin": "cited, not measured here", "settings": "literature examples; cited from earlier work"}
{"substance": "PEG-IFN-α2b: literature example of a PEGylated protein with reduced activity", "values": [{"measurement": "reduction of activity upon PEGylation", "result": 3.6, "unit": "fold"}]}
